# Assay results taken from PMC12204359, “Mechanistic Design of Cell-Penetrating Disruptors for a Phospho-Dependent Interaction” (Research Square, 2025).
# Changes are numbered by the printed parent chain.
# Assays:
# K507A-CHC^ankle = target: T1, K507A-CHC^ankle (Homo sapiens, UniProt Q00610, K507A); experiment: Fluorescence polarisation direct binding assay, K507A-CHC ankle; conditions: for Kd: direct binding FP, FAM labelled peptides, CHC with K507A substitution, mean of three experiments ± SD, read-out: KD, stapled and control peptides, CHC K507A
# T1 construct: we used the minimal ankle region of CHC (CHC^ankle, aa 358–574); GST (TEV-cleavable); made in house
# T1 sequence (Q00610 358-574 K507A): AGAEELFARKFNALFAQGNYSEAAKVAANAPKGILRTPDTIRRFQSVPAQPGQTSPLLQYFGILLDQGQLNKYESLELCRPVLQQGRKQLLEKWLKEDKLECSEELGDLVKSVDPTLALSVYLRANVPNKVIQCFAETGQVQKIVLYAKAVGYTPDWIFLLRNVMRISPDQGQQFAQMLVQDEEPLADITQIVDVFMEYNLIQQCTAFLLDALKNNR
# Description: CHC constructs for binding studies were produced during previous work by cloning the respective CHC coding sequence of Q00610 (CLH1_HUMAN) aa 1–574 and 358–574, respectively) into a modified pGEX vector containing a TEV-cleavable GST tag[26]. Point mutations K506A and K507A were introduced by site-directed mutagenesis. GB1-TACC3 is the small protein GB1[47] fused to a short, disordered peptide sequence from human TACC3 (Q9Y6A5, aa 545–573). This hybrid sequence was cloned into a pETM6T1 vector which contains a TEV protease-cleavable N-terminal His-NusA tag.
# (§1) Binding affinity of CHC and TACC3 peptides was calculated based on fluorescence polarization assays performed as reported previously, using linear and stapled FAM-TACC3 peptides corresponding to aa 549–570 of human TACC3 protein. Linear peptides were purchased from PPR (Fareham, UK); Alta Bioscience (Redditch, UK); Biomatik Corporation (Ontario, Canada). Stock solutions of peptides were 10 mM in DMSO. Binding assays were performed in triplicate in the binding buffer 20 mM HEPES pH 7.5, 150 mM NaCl, 5 mM DTT, 0.05% Tween-20. Data analysis was performed using a one-site specific binding model in Prism (GraphPad software, v10.1.0).
# HeLa cells = experiment: Cellular peptide uptake by flow cytometry, HeLa; assay type: in vitro ADME; conditions: live HeLa, FAM-peptides 1, 2.5, 5, 10 μM for 60 min or 5 μM for 15–360 min, complete medium 10% FBS, 0.2% DMSO, washed and trypsinised, % positive cells and MFI at 525 nm, at least three biological replicates
# Description: For peptide uptake measurements the medium was aspirated and cells were treated with fresh pre-warmed complete growth medium supplemented for 60 min with FAM-peptides at concentrations of 1, 2.5, 5 and 10 μM; the final concentration of DMSO was 0.2%. To perform the time course of peptide uptake, cells were treated with fresh growth medium supplemented with 5 μM peptide for 15–360 min. After the incubation, cells were washed three times in ice cold phosphate-buffered saline (PBS) and trypsinised for 5 min to remove surface bound peptides and dissociate cells from the surface. The dissociation reaction was stopped using PBS containing 5% FBS. Cells were harvested by centrifugation (5 min, 150 g) and washed an additional three times in PBS. Cells were then resuspended in 300 μL PBS and subjected to a Cytoflex S cytometer (Beckman Coulter) measurement. Using forward and side scattered light, a gate for intact, non-aggregated cells was defined. The fluorescence at 525 nm of 10,000 events was collected within this cell gate and data were analysed using Cytoflex software (version 10.1). Results are shown as geometric means of fluorescence collected at 525 nm.
# [1] = target: T2, CHC^ankle (clathrin heavy chain aa 358–574) (Homo sapiens, UniProt Q00610); experiment: Fluorescence polarisation direct binding assay, CHC ankle WT; conditions: direct binding FP, FAM labelled peptides; CHC WT (385–574); mean of three experiments ± SD; read-out: KD, stapled and control peptides, CHC WT
# T2 construct: we used the minimal ankle region of CHC (CHC^ankle, aa 358–574); GST (TEV-cleavable); made in house
# T2 sequence (Q00610 358-574): T1 sequence (Q00610 358-574 K507A) with A150K
# Description: as §1
# [2] = target: T3, biotinylated Avi-tagged ankle region of clathrin (aa 358–574) (Homo sapiens, UniProt Q00610); experiment: SPR binding kinetics; conditions: Biacore 1K+, CHC aa 358–574 on SA chip; 60 s injection; average ± SD of duplicates; read-out: ka (SPR)
# T3 construct: The biotinylated Avi-tagged ankle region of clathrin (aa 358–574) was immobilised; made in house
# T3 sequence (Q00610 358-574 limits assumed): T1 sequence (Q00610 358-574 K507A) with A150K
# Description: The SPR assays were performed using a Biacore 1K+ instrument (Cytiva Life Sciences). The biotinylated Avi-tagged ankle region of clathrin (aa 358–574) was immobilised on the surface of a Streptavidin SA chip (Cytiva Life Sciences) to the density of 150 RU. The increasing concentrations of peptide analytes were diluted in the running buffer (20 mM HEPES pH 7.5, 150 mM NaCl, 5 mM DTT, 0.05% Tween-20) and injected at a flow rate of 30 μL/min). […] Each concentration was injected at 30 μL/min for 60 s. […] The Biacore evaluation software was used to calculate equilibrium KD values as well as ka and kd constants using 1:1 steady-state affinity model implemented into the BIAevaluation 3.0 software.
"fold enhancement of affinity for K507A-CHC ankle over WT CHC ankle (K507A-CHC^ankle; FP, K507A-CHC ankle versus WT CHC ankle) [fold]",cellular uptake / cell penetration (HeLa cells),Kd [1] [µM],Kd (K507A-CHC^ankle) [µM],kon [2] [M⁻¹ s⁻¹],Compound
~10,low and slow cellular uptake,–,–,–,"CC(C)C[C@H](NC(=O)[C@H](C)NC(=O)[C@H](CO)NC(=O)[C@H](CCC(=O)O)NC(=O)[C@H](CCCCN)NC(=O)[C@H](Cc1ccccc1)NC(=O)c1ccc2c(c1)C1(OC2=O)c2ccc(O)cc2Oc2cc(O)ccc21)C(=O)N[C@@H](CCCNC(=N)N)C(=O)N[C@@H](CCCCN)C(=O)N[C@@H](CCC(N)=O)C(=O)N[C@@H](CO)C(=O)N[C@@H](CC(C)C)C(=O)N[C@@H](Cc1ccc(O)cc1)C(=O)N[C@@H](CC(C)C)C(=O)N[C@@H](CCCCN)C(=O)N[C@@H](Cc1ccccc1)C(=O)N[C@@H](CC(=O)O)C(=O)N1CCC[C@H]1C(=O)N[C@@H](CC(C)C)C(=O)N[C@@H](CC(C)C)C(=O)N[C@@H](CCCNC(=N)N)C(=O)N[C@@H](CC(=O)O)C(=O)N[C@@H](CO)C(N)=O [TACC3 CID, reference compound]"
–,–,105 ± 5,37 ± 7,–,CC(C)C[C@H](NC(=O)[C@H](C)NC(=O)[C@H](CCC(N)=O)NC(=O)[C@H](CCCCN)NC(=O)[C@H](CCCNC(=N)N)NC(=O)[C@H](CC(C)C)NC(=O)[C@H](C)NC(=O)[C@H](CO)NC(=O)[C@H](CCC(=O)O)NC(=O)[C@H](CCCCN)NC(=O)[C@H](Cc1ccccc1)NC(=O)c1ccc2c(c1)C1(OC2=O)c2ccc(O)cc2Oc2cc(O)ccc21)C(=O)N[C@@H](Cc1ccc(O)cc1)C(=O)N[C@@H](CC(C)C)C(=O)N[C@@H](C)C(=O)N[C@@H](Cc1ccccc1)C(=O)N[C@@H](CC(=O)O)C(=O)N1CCC[C@H]1C(=O)N[C@@H](CC(C)C)C(=O)N[C@@H](CC(C)C)C(=O)N[C@@H](CCCNC(=N)N)C(=O)N[C@@H](CC(=O)O)C(=O)N[C@@H](CO)C(N)=O [P1]
–,–,–,–,85000,"CC(C)C[C@H](NC(=O)[C@H](C)NC(=O)[C@H](CO)NC(=O)[C@H](CCC(=O)O)NC(=O)[C@H](CCCCN)NC(=O)[C@H](Cc1ccccc1)NC(=O)c1ccc2c(c1)C1(OC2=O)c2ccc(O)cc2Oc2cc(O)ccc21)C(=O)N[C@@H](CCCNC(=N)N)C(=O)N[C@@H](CCCCN)C(=O)N[C@@H](CCC(N)=O)C(=O)N[C@@H](COP(=O)(O)O)C(=O)N[C@@H](CC(C)C)C(=O)N[C@@H](Cc1ccc(O)cc1)C(=O)N[C@@H](CC(C)C)C(=O)N[C@@H](CCCCN)C(=O)N[C@@H](Cc1ccccc1)C(=O)N[C@@H](CC(=O)O)C(=O)N1CCC[C@H]1C(=O)N[C@@H](CC(C)C)C(=O)N[C@@H](CC(C)C)C(=O)N[C@@H](CCCNC(=N)N)C(=O)N[C@@H](CC(=O)O)C(=O)N[C@@H](CO)C(N)=O [WT pTACC3, reference compound]"
–,–,160 ± 3,19 ± 5,–,CC(C)C[C@H](NC(=O)[C@H](C)NC(=O)[C@H](CCC(N)=O)NC(=O)[C@H](CCCCN)NC(=O)[C@H](CCCNC(=N)N)NC(=O)[C@H](C)NC(=O)[C@H](C)NC(=O)[C@H](CO)NC(=O)[C@H](CCC(=O)O)NC(=O)[C@H](CCCCN)NC(=O)[C@H](Cc1ccccc1)NC(=O)c1ccc2c(c1)C1(OC2=O)c2ccc(O)cc2Oc2cc(O)ccc21)C(=O)N[C@@H](Cc1ccc(O)cc1)C(=O)N[C@@H](CC(C)C)C(=O)N[C@@H](CCCCN)C(=O)N[C@@H](Cc1ccccc1)C(=O)N[C@@H](CC(=O)O)C(=O)N1CCC[C@H]1C(=O)N[C@@H](CC(C)C)C(=O)N[C@@H](CC(C)C)C(=O)N[C@@H](CCCNC(=N)N)C(=O)N[C@@H](CC(=O)O)C(=O)N[C@@H](CO)C(N)=O [P2]
